# Data: ChEMBL document CHEMBL1157721, “Bisquaternary pyridinium oximes: Comparison of in vitro reactivation potency of compounds bearing aliphatic linkers and heteroaromatic linkers for paraoxon-inhibited electric eel and recombinant human acetylcholinesterase” (2010)
# Test system: Vero
# Assay: Cytotoxicity against african green monkey Vero cells up to 4.67 ug/ml
# Conditions: chlorocebus sabaeus
row,Compound,Activity
1,NC(=O)c1cc[n+](CCCC[n+]2ccc(/C=N/O)cc2)cc1.[Br-].[Br-],Non-toxic
2,NC(=O)c1cc[n+](-c2ccc(-[n+]3ccc(C(N)=O)cc3)o2)cc1.[Br-].[Br-],Non-toxic
3,NC(=O)c1cc[n+](CCCC[n+]2cccc(/C=N/O)c2)cc1.[Br-].[Br-],Non-toxic
4,NC(=O)c1cc[n+](-c2ccc(-[n+]3ccc(/C=N/O)cc3)s2)cc1.[Cl-].[Cl-],Non-toxic
5,C[n+]1ccccc1/C=N/O.[I-],Non-toxic
6,NC(=O)c1cc[n+](CCC[n+]2ccccc2/C=N/O)cc1.[Br-].[Br-],Non-toxic
7,O/N=C/c1cc[n+](CCC[n+]2ccc(/C=N/O)cc2)cc1.[Br-].[Br-],Non-toxic
8,CS(=O)(=O)[O-].CS(=O)(=O)[O-].O/N=C/c1cccc[n+]1COC[n+]1ccccc1/C=N/O,Non-toxic
9,O/N=C/c1cc[n+](-c2cc(-[n+]3ccc(/C=N/O)cc3)on2)cc1.[Br-].[Br-],Non-toxic
10,NC(=O)c1cc[n+](CCC[n+]2ccc(/C=N/O)cc2)cc1.[Br-].[Br-],Non-toxic
11,O/N=C/c1ccc[n+](-c2ccc(-[n+]3cccc(/C=N/O)c3)s2)c1.[Cl-].[Cl-],Non-toxic
12,O/N=C/c1ccc[n+](CCCC[n+]2cccc(/C=N/O)c2)c1.[Br-].[Br-],Non-toxic
13,CS(=O)(=O)[O-].CS(=O)(=O)[O-].O/N=C\c1ccc[n+](COC[n+]2cccc(/C=N/O)c2)c1,Non-toxic
14,O/N=C/c1cccc[n+]1-c1ccc(-[n+]2ccccc2/C=N/O)o1.[Br-].[Br-],Non-toxic
15,NC(=O)c1cc[n+](CCC[n+]2cccc(/C=N/O)c2)cc1.[Br-].[Br-],Non-toxic
16,O/N=C\c1ccc[n+](CCC[n+]2cccc(/C=N/O)c2)c1.[Br-].[Br-],Non-toxic
17,O/N=C/c1cccc[n+]1CCC[n+]1ccccc1/C=N/O.[Br-].[Br-],Non-toxic
18,O/N=C/c1cccc[n+]1-c1cc(-[n+]2ccccc2/C=N/O)on1.[Br-].[Br-],Non-toxic
19,CS(=O)(=O)[O-].CS(=O)(=O)[O-].O/N=C/c1cc[n+](COC[n+]2ccc(/C=N/O)cc2)cc1,Non-toxic
20,O/N=C/c1cc[n+](CCCC[n+]2ccc(/C=N/O)cc2)cc1.[Br-].[Br-],Non-toxic
21,O/N=C/c1cc[n+](-c2ccc(-[n+]3ccc(/C=N/O)cc3)o2)cc1.[Br-].[Br-],Non-toxic
22,O/N=C/c1cccc[n+]1CCCC[n+]1ccccc1/C=N/O.[Br-].[Br-],Non-toxic
23,O/N=C/c1ccc[n+](-c2ccc(-[n+]3cccc(/C=N/O)c3)o2)c1.[Br-].[Br-],Non-toxic
24,O/N=C/c1cccc[n+]1-c1ccc(-[n+]2ccccc2/C=N/O)s1.[Cl-].[Cl-],Non-toxic
25,NC(=O)c1cc[n+](CCCC[n+]2ccccc2/C=N/O)cc1.[Br-].[Br-],Non-toxic
26,NC(=O)c1cc[n+](-c2ccc(-[n+]3cccc(/C=N/O)c3)s2)cc1.[Cl-].[Cl-],Non-toxic
27,O/N=C/c1cc[n+](-c2ccc(-[n+]3ccc(/C=N/O)cc3)s2)cc1.[Cl-].[Cl-],Non-toxic
28,O/N=C/c1ccc[n+](-c2cc(-[n+]3cccc(/C=N/O)c3)on2)c1.[Br-].[Br-],Non-toxic
